Apparent affinities of Ab-14 variants for a coronavirus HR2 peptide

Data: MIT Lincoln Laboratory AlphaSeq set, Engelhart et al. 2022, doi:10.1038/s41597-022-01779-4, as distributed in FLAb.

All variants were tested on one target, the spike HR2 peptide PDVDLGDISGINAS (SARS-CoV-2).

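The starting antibody came from a phage panning campaign against this peptide. Library AAYL50 holds single substitutions and randomly drawn double and triple substitutions in the CDRs. AlphaSeq pools MATa yeast showing the antibodies with MATalpha yeast showing the peptide. Pairs that bind mate more often; barcode pairs of the diploids are counted by sequencing. Each replicate has its own calibration line, from reference interactions of the BCL2 family. The assay was run in three technical replicates.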

Ab-14 is the parent antibody, in scFv form: VH, then the linker GGGGSGGGGSGGGGS, then VL. The heavy chain is unchanged in all variants.
VH: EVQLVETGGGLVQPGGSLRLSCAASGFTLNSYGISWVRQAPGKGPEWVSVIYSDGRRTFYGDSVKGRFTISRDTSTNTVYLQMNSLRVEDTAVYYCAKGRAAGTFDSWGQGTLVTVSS
VL: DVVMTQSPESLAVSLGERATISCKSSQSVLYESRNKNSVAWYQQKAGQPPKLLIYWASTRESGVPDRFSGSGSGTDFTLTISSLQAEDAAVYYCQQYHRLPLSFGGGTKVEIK

Each variant's VL is given in full.
Numbers give log10(Kd / nM), so 0 is 1 nM and 3 is 1 µM. Smaller is tighter.
Replicates are averaged; those with no signal do not enter the mean.
"nd" marks a missing value. The strain was present, yet no cells mated with the target were sequenced in any replicate, which points to weak or no binding.
Three control strains display no target. For library AAYL50, 18% of the pairings with them gave a signal, with a median of 4.19 and one signal in twenty below 2.99, so weak values seen in few replicates may be background.

| VL | log10 Kd (nM), mean | replicates with signal |
|---|---|---|
| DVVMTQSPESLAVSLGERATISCKSSQSVLYQSRNKNSVAWYQQKAGQPPKLLIYQASTRESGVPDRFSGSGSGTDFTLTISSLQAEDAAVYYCQQYHRLPLSFGGGTKVEIK | 0.42 | 3 of 3 |
| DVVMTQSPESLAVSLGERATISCKFSQSVLYESRNKNSVRWYQQKAGQPPKLLIYWASTRESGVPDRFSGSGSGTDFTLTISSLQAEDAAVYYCQQYHLLPLSFGGGTKVEIK | 2.21 | 1 of 3 |
| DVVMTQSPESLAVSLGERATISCKSSQSVQYESRNKNSVWWYQQKAGQPPKLLIYWASTRESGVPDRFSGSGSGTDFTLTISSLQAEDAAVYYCQQYHRQPLSFGGGTKVEIK | nd | 0 of 3 |
| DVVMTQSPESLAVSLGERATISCKSSQSVLYESRNKNSVAWYQQKAGQPPKLLIYCASTRESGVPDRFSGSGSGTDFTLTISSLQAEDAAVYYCSQYHCLPLSFGGGTKVEIK | 4.88 | 2 of 3 |
| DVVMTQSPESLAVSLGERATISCKSSTSVLYESRNKNSVAWYQQKAGQPPKLLIYKASTRESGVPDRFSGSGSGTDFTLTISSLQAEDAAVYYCQQYHRAPLSFGGGTKVEIK | nd | 0 of 3 |
| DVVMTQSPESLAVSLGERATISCKSSQSGLYESRNKNSVAWYQQKAGQPPKLLIYWASTRESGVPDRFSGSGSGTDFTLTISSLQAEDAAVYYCQQYHIMPLSFGGGTKVEIK | 2.16 | 3 of 3 |
| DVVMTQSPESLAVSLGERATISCKSSQSVLYESCNKNGVAWYQQKAGQPPKLLIYWASVRESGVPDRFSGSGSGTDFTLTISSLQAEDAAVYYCQQYHRLPLSFGGGTKVEIK | nd | 0 of 3 |
| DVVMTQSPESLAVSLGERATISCKSSQSVLYESINKNSVMWYQQKAGQPPKLLIYKASTRESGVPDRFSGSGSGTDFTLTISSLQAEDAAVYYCQQYHRLPLSFGGGTKVEIK | 4.14 | 2 of 3 |
| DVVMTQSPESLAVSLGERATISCKSSASVLYEARNKNSVAWYQQKAGQPPKLLIYWASTRESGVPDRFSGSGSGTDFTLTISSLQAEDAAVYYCQQYHRLPRSFGGGTKVEIK | 0.79 | 3 of 3 |
| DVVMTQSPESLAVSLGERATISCKSSQSVLYESRNKNSVAWYQQKAGQPPKLLIYWASTRRSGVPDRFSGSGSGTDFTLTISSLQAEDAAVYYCQQYCRLVLSFGGGTKVEIK | nd | 0 of 3 |
| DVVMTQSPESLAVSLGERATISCKQSQSVLYESRNKNSLAWYQQKAGQPPKLLIYWASTRESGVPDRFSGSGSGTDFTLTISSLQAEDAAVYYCQQYHRAPLSFGGGTKVEIK | 3.03 | 1 of 3 |
| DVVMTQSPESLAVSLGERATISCKSSQSVLYEERNKNLVAWYQQKAGQPPKLLIYWASTRESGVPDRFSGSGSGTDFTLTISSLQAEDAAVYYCQQYHRLPVSFGGGTKVEIK | nd | 0 of 3 |
| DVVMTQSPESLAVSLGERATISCKSSQSVLYESRNKNSVAWYQQKAGQPPKLLIYWASTRHSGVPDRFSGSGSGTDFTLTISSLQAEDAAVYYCQQYHRLELSFGGGTKVEIK | nd | 0 of 3 |
| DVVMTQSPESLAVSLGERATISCKSSQSVLYESRNKFEVVWYQQKAGQPPKLLIYWASTRESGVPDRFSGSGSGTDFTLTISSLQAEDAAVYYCQQYHRLPLSFGGGTKVEIK | nd | 0 of 3 |

The first 2 entries again:

| VL | log10 Kd (nM), mean | replicates with signal |
|---|---|---|
| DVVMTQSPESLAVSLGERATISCKSSQSVLYQSRNKNSVAWYQQKAGQPPKLLIYQASTRESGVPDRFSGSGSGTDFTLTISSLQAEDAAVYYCQQYHRLPLSFGGGTKVEIK | 0.42 | 3 of 3 |
| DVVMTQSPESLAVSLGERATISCKFSQSVLYESRNKNSVRWYQQKAGQPPKLLIYWASTRESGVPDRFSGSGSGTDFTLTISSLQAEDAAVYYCQQYHLLPLSFGGGTKVEIK | 2.21 | 1 of 3 |

In this assay the parent's reference entry averaged 0.65; its copy inside this library read 1.68.